The target of the test is adenosine receptor known as A1 (Cavia porcellus, UniProt P47745).

Protein sequences, listed by entry. Tags and fused reporters are not part of them.
UniProt P47745, whole entry: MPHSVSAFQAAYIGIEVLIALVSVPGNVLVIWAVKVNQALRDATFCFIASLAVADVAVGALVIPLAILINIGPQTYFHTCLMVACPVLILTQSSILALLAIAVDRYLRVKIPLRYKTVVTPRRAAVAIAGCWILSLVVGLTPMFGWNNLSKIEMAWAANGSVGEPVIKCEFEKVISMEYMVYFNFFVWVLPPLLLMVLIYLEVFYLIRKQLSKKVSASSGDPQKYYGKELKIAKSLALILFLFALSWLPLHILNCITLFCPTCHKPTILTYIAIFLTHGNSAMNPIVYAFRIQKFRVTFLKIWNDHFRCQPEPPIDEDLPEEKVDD

The molecule `Cn1c(=O)c2[nH]cnc2n(C)c1=O` [1,3-dimethylxanthine] showed a Kb of roughly 10 µM.

The values above are taken from patent US5500428A (dated 1996).
